## Measured affinities in a library of Ab-95 light chain variants

Target peptide (SARS-CoV-2 spike, HR2 region): PDVDLGDISGINAS

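The starting antibody came from a phage panning campaign against this peptide. Library AAYL52 holds single substitutions and randomly drawn double and triple substitutions in the CDRs. The assay is AlphaSeq: two haploid yeast populations carry antibody and antigen on their surface. Mating (16 h, 30 °C) was followed by selection of diploids and sequencing of their barcodes. Scores were corrected for input abundance and mapped to Kd with protein pairs of known affinity run in the same pool. The assay was run in three technical replicates.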

Parent scFv Ab-95: VH joined to VL by a 15-residue (Gly4Ser)3 linker. Changes lie in the light chain CDRs alone.
VH: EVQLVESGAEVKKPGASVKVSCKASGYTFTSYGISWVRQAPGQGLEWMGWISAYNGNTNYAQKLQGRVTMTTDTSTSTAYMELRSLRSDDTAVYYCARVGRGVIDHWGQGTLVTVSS
VL: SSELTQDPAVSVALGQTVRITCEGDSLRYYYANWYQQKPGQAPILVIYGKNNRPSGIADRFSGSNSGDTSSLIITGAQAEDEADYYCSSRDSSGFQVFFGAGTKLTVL

Variants are written as CDR1, CDR2 and CDR3 of the light chain (limits as in the source). Parent: EGDSLRYYYAN, GKNNRPS, SSRDSSGFQVF.
Scale: log10 of Kd in nM, estimated from mating counts; low values are strong binders.
Replicates are averaged; those with no signal do not enter the mean.
Where no diploid with the target was found in that replicate, the entry reads "ND": below detection, most likely a poor binder, though not proof of it.
Empty control strains, which show no peptide, gave a signal in 28% of pairings with library AAYL52; the median was 3.91 and 95% of these signals were weaker than 2.90. No background was subtracted. Also given: how often the same scFv was detected with the empty control strains, with their mean in brackets.
In this assay the parent's reference entry averaged 2.31; its copy inside this library read 2.25.

| CDR-L1 | CDR-L2 | CDR-L3 | log10 Kd, replicates | log10 Kd (nM), mean | signal with controls |
|---|---|---|---|---|---|
| EGDSLRYYYAN | GKWNRPC | SSRDSFGFQVF | ND / 5.58 / ND | 5.58 | 3 of 9 (3.91) |
| EGDSLFYYFAN | GKNNIPS | SSRDSSGFQVF | 4.57 / 3.94 / ND | 4.26 | 2 of 9 (4.39) |
| EGDRLRWYYAN | GKNNRPS | SRRDSSGFQVF | 4.00 / ND / ND | 4.00 | 4 of 9 (3.69) |
| LGDSLRYYYAN | GKNNRSS | SSRDSSGFQQF | 2.79 / 3.20 / 2.03 | 2.67 | 5 of 9 (4.23) |
| EGDSYRYYYPN | GKNNRPS | SSRDSSGFQVY | 3.24 / 2.92 / 2.87 | 3.01 | 6 of 9 (3.62) |
| EGDSLRYYYAC | GKNNRPS | SRRDSLGFQVF | ND / 4.08 / ND | 4.08 | 0 of 9 |
| AGDSLRYYYAN | GKNNRPS | RSRDSSGFWVF | 2.41 / 2.50 / 2.11 | 2.34 | 2 of 9 (3.79) |
| EGDSLRYYYAN | GKNNRPS | SSRDSSGIGVF | 2.64 / 2.28 / 2.15 | 2.36 | 6 of 9 (3.85) |
| EGDSLRYYYAN | GKFNRSS | SSRDSSGFQVT | ND / ND / 4.52 | 4.52 | 4 of 9 (4.29) |
| EGDSLRYYYAN | GKNNRPS | SMRDYSGFQVF | 2.85 / 3.19 / 3.35 | 3.13 | 3 of 9 (3.96) |
| EGDWLRYYYAN | GKNQRVS | SSRDSSGFQVF | 3.40 / 3.64 / ND | 3.52 | 3 of 9 (4.01) |
| EGDSLRYYYAN | GMNLRPS | SSRDSSGFQVG | 3.20 / 2.98 / 2.93 | 3.04 | 5 of 9 (3.53) |
| EGDSLFYYYAN | GKWNRPS | SSRDNSGFQVF | 5.26 / ND / 3.21 | 4.24 | 2 of 9 (4.80) |
| EGGSLRYYYAN | GKNNRKS | SSRDSSGKQVF | ND / ND / 4.19 | 4.19 | 0 of 9 |
| EGDSLKYYYAN | GKNCRPS | SSRKSSGFQVF | 5.29 / 5.41 / 3.33 | 4.68 | 2 of 9 (4.54) |
| EGDSLRYYYAN | GKNNRPS | SSRASSGFNVF | 3.20 / 3.02 / 2.61 | 2.94 | 1 of 9 (3.20) |
| EGDSLRTQYAN | GKNNRPS | SSRDSSGFQYF | 1.05 / 1.33 / 0.34 | 0.90 | 4 of 9 (3.77) |
| PGDQLRYYYAN | GKTNRPS | SSRDSSGFQVF | 4.50 / 4.42 / 3.88 | 4.27 | 6 of 9 (3.87) |
| EGDSLRYYYAS | GKNMRPS | SSRDSSGFGVF | 3.85 / ND / ND | 3.85 | 4 of 9 (4.09) |
| VGDSLRYYYAN | KKNNRPS | SSRDSIGFQVF | ND / ND / ND | ND | 2 of 9 (3.60) |
| GGDSLRYYYAN | GKCNRPS | SSRCSSGFQVF | 4.26 / ND / ND | 4.26 | 6 of 9 (3.83) |
| EGDSLRYYYAN | GKNNRPA | SSRDSHYFQVF | 3.95 / 2.33 / 2.60 | 2.96 | 0 of 9 |
| GGDSLRYCYTN | GKNNRPS | SSRDSSGFQVF | 2.72 / 3.00 / 2.28 | 2.66 | 3 of 9 (3.75) |
| EGDSLRRYYAN | GKPNRPS | QSRDSSGFQVF | 5.45 / ND / ND | 5.45 | 2 of 9 (4.32) |
| EGDVNRYYYAN | MKNNRPS | SSRDSSGFQVF | 4.53 / ND / 3.39 | 3.96 | 0 of 9 |
| EGDSLRFYYAN | GKNNRPS | SSRWSSGFQSF | 3.37 / 4.22 / ND | 3.80 | 2 of 9 (3.75) |
| EGDSDRYYYAN | GKFERPS | SSRDSSGFQVF | 3.49 / 5.37 / ND | 4.43 | 6 of 9 (4.03) |
| EGDSLRYYYAN | GKCNRPS | SSRDSSGGQHF | 3.10 / 5.34 / 3.25 | 3.90 | 5 of 9 (3.77) |
| EGDSLRYYEAN | LKNNRPS | SSRDSSGWQVF | 4.63 / ND / ND | 4.63 | 3 of 9 (4.42) |
| EGDSARYYYAN | GKNNRPE | SSRDSSGFQVF | 3.24 / 3.37 / 4.40 | 3.67 | 3 of 9 (4.12) |
| EGDSLGYYYAN | GKNNRPH | SSRDSSGCQVF | 3.22 / 2.86 / 2.67 | 2.92 | 5 of 9 (4.13) |
| EGMVLRYYYAN | GKNNRFS | SSRDSSGFQVF | 3.91 / ND / ND | 3.91 | 5 of 9 (4.27) |
| EGDSLRYYYRN | GKNNRPS | SSRDSKGFQVH | 3.57 / 3.74 / ND | 3.65 | 1 of 9 (3.77) |
| EGDSLRYYYAN | GKNNLPS | SSSDSSDFQVF | 3.41 / ND / ND | 3.41 | 0 of 9 |
| EGDSLDYDYAN | GKNNRPS | SSPDSSGFQVF | 3.00 / 2.62 / 2.53 | 2.72 | 3 of 9 (3.11) |

For reference, 5 entries of the list once more:

{"CDR-L1": "EGDSLKYYYAN", "CDR-L2": "GKNCRPS", "CDR-L3": "SSRKSSGFQVF", "log10 Kd, replicates": "5.29 / 5.41 / 3.33", "log10 Kd (nM), mean": "4.68", "signal with controls": "2 of 9 (4.54)"}
{"CDR-L1": "EGDSLRYYYAN", "CDR-L2": "GKNNRPS", "CDR-L3": "SMRDYSGFQVF", "log10 Kd, replicates": "2.85 / 3.19 / 3.35", "log10 Kd (nM), mean": "3.13", "signal with controls": "3 of 9 (3.96)"}
{"CDR-L1": "EGDSLRYYYAN", "CDR-L2": "GKNNRPA", "CDR-L3": "SSRDSHYFQVF", "log10 Kd, replicates": "3.95 / 2.33 / 2.60", "log10 Kd (nM), mean": "2.96", "signal with controls": "0 of 9"}
{"CDR-L1": "LGDSLRYYYAN", "CDR-L2": "GKNNRSS", "CDR-L3": "SSRDSSGFQQF", "log10 Kd, replicates": "2.79 / 3.20 / 2.03", "log10 Kd (nM), mean": "2.67", "signal with controls": "5 of 9 (4.23)"}
{"CDR-L1": "EGMVLRYYYAN", "CDR-L2": "GKNNRFS", "CDR-L3": "SSRDSSGFQVF", "log10 Kd, replicates": "3.91 / ND / ND", "log10 Kd (nM), mean": "3.91", "signal with controls": "5 of 9 (4.27)"}

Reference: Engelhart et al. 2022, doi:10.1038/s41597-022-01779-4. File: FLAb, binding data.